Laboratory results published in patent publication US8329645B2, “Polymyxin derivatives and uses thereof” (priority 2008, dated 2012).

Test system: all strains (17) belonging to the group consisting of E. coli, K. oxytoca, E. cloacae, and C. freundii
Test: E-test sensitization by NAB7061, summary over strains
Assay type: cell-based
Settings: rifampin: all 17 strains; clarithromycin: fifteen out of seventeen strains

## CC[C@H]1OC(=O)[C@H](C)[C@@H](O[C@H]2C[C@@](C)(OC)[C@@H](O)[C@H](C)O2)[C@H](C)[C@@H](O[C@@H]2O[C@H](C)C[C@H](N(C)C)[C@H]2O)[C@](C)(OC)C[C@@H](C)C(=O)[C@H](C)[C@@H](O)[C@]1(C)O [Clarithromycin]
  MIC of antibiotic in the presence of NAB7061 (4 μg/ml): ≤ 0.25 µg/mL
